SMILES strings stand for the structures.

Protein sequences, listed by entry. Tags and fused reporters are not part of them.
UniProt P27487, whole entry: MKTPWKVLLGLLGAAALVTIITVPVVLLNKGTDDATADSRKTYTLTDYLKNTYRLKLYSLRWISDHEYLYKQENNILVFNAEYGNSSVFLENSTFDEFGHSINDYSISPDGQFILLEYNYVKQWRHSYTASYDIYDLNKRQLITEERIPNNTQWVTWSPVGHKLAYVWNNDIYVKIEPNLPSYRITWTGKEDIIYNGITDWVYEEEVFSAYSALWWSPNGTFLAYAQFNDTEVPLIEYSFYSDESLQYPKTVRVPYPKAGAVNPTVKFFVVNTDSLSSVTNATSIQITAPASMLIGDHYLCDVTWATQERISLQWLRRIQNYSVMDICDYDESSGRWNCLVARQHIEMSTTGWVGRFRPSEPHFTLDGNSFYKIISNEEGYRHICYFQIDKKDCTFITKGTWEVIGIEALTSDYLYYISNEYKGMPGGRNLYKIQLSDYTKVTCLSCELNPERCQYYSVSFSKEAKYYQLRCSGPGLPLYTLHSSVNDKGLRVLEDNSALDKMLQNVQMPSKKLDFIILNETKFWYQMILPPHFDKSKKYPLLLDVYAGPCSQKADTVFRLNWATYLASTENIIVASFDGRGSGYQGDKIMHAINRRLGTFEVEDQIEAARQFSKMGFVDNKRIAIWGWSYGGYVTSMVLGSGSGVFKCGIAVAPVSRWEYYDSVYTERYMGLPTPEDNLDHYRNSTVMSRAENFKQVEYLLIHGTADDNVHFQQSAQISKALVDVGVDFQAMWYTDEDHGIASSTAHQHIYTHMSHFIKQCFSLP

The record followed here is patent publication US11891425B2, “Thioamide-modified peptides and uses thereof” (THE TRUSTEES OF THE UNIVERSITY OF PENNSYLVANIA, priority 2014, dated 2024).

One data set deals with DPP-4 (Homo sapiens, UniProt P27487). Nature of the data set: in vitro degradation assay with DPP-4 (HPLC/MALDI MS, amount of intact peptide). The note with it: in presence of DPP-4. Here is the method:
For this study, purified peptides were incubated with DPP-4 in assay buffer for various time periods. The reactions were quenched, and the products analyzed by HPLC/MALDI MS to determine the amount of intact peptide.
Purified peptides are incubated with DPP-4 in assay buffer for various time periods. The reaction is quenched and the products are analyzed by HPLC to determine the amount of intact peptide. MALDI MS is used to determine the identities of HPLC peaks.

Data set [1] in a line: stability in buffer without DPP-4 (auto-degradation). It counts as physicochemical.

What is called half-life is the time needed for the level to fall by half in the phase considered. A low value points to rapid decline. As to `CC[C@H](C)[C@H](NC(=O)[C@H](Cc1ccccc1)NC(=O)[C@H](CCC(=O)O)NC(=O)[C@H](CCCCN)NC(=O)[C@H](C)NC(=O)[C@H](C)NC(=O)[C@H](CCC(N)=O)NC(=O)CNC(=O)[C@H](CCC(=O)O)NC(=O)[C@H](CC(C)C)NC(=O)[C@H](Cc1ccc(O)cc1)NC(=O)[C@H](CO)NC(=O)[C@H](CO)NC(=O)[C@@H](NC(=O)[C@H](CC(=O)O)NC(=O)[C@H](CO)NC(=O)[C@@H](NC(=O)[C@H](Cc1ccccc1)NC(=O)[C@@H](NC(=O)CNC(=O)[C@H](CCC(=O)O)NC(=S)[C@H](C)NC(=O)[C@@H](N)Cc1ccccc1)[C@@H](C)O)[C@@H](C)O)C(C)C)C(=O)N[C@@H](C)C(=O)N[C@@H](Cc1c[nH]c2ccccc12)C(=O)N[C@@H](CC(C)C)C(=O)N[C@H](C(=O)N[C@@H](CCCCN)C(=O)NCC(=O)N[C@@H](CCCNC(=N)N)C(N)=O)C(C)C` [GLP-1-F7A^s8], the “degradation by DPP-4 (in words)” value at DPP-4 is “not degraded by DPP-4”. Besides, in data set [1], the half-life is roughly 1440 min.
